Test results from publication PMC10177590, “Canine Intestinal Organoids as a Novel In Vitro Model of Intestinal Drug Permeability: A Proof-of-Concept Study” (Cells, 2023).
Where two headings read alike, the source gives them in different places.

Tested on: canine colonoid monolayer
[1] = FITC-dextran with metoprolol, 120 min
[2] = FITC-dextran without metoprolol, 120 min

## FITC-Dextran
FITC-dextran 200 µg/mL + metoprolol 0.4 mg/mL, AP donor pH 6.8, 0 min
  Donor (%): 100 ± 0.0%
FITC-dextran 200 µg/mL + metoprolol 0.4 mg/mL, AP donor pH 6.8, 120 min
  Donor (%): 94.6 ± 1.4%
FITC-dextran 200 µg/mL + metoprolol 0.4 mg/mL, BL receiver pH 7.4, 0 min
  Receiver (%): 0.021 ± 0.001%
FITC-dextran 200 µg/mL + metoprolol 0.4 mg/mL, BL receiver pH 7.4, 15 min
  Receiver (%): 0.023 ± 0.001%
FITC-dextran 200 µg/mL + metoprolol 0.4 mg/mL, BL receiver pH 7.4, 30 min
  Receiver (%): 0.020 ± 0.00%
FITC-dextran 200 µg/mL + metoprolol 0.4 mg/mL, BL receiver pH 7.4, 45 min
  Receiver (%): 0.020 ± 0.00%
FITC-dextran 200 µg/mL + metoprolol 0.4 mg/mL, BL receiver pH 7.4, 60 min
  Receiver (%): 0.022 ± 0.001%
FITC-dextran 200 µg/mL + metoprolol 0.4 mg/mL, BL receiver pH 7.4, 90 min
  Receiver (%): 0.023 ± 0.00%
FITC-dextran 200 µg/mL + metoprolol 0.4 mg/mL, BL receiver pH 7.4, 120 min
  Receiver (%): 0.020 ± 0.001%
FITC-dextran 200 µg/mL alone, AP donor pH 6.8, 0 min
  Donor (%): 100 ± 0.0%
FITC-dextran 200 µg/mL alone, AP donor pH 6.8, 120 min
  Donor (%): 93.7 ± 7.8%
FITC-dextran 200 µg/mL alone, BL receiver pH 7.4, 0 min
  Receiver (%): 0.020 ± 0.001%
FITC-dextran 200 µg/mL alone, BL receiver pH 7.4, 15 min
  Receiver (%): 0.021 ± 0.003%
FITC-dextran 200 µg/mL alone, BL receiver pH 7.4, 30 min
  Receiver (%): 0.024 ± 0.004%
FITC-dextran 200 µg/mL alone, BL receiver pH 7.4, 45 min
  Receiver (%): 0.022 ± 0.002%
FITC-dextran 200 µg/mL alone, BL receiver pH 7.4, 60 min
  Receiver (%): 0.024 ± 0.003%
FITC-dextran 200 µg/mL alone, BL receiver pH 7.4, 90 min
  Receiver (%): 0.023 ± 0.004%
FITC-dextran 200 µg/mL alone, BL receiver pH 7.4, 120 min
  Receiver (%): 0.022 ± 0.002%
[1]
  percentage of relative fluorescence, donor side: 94.6 % RFU
  percentage of relative fluorescence, receiver side: < 0.02 % RFU
[2]
  percentage of relative fluorescence, donor chamber: 93.7 % RFU
  percentage of relative fluorescence, receiver chamber: < 0.02 % RFU
